# GIV Gai3 FP: GIV-Galpha-i interaction inhibition. AID 1224905. actives 0.42% (n = 210,000). percent of control (FP), % (test concentration not listed). Galpha-i3/FITC-GIV peptide fluorescence polarization, 90 min; stronger effect = lower value; scaled: aluminum fluoride 0%, vehicle 100%;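 active = replicate mean at 85% of control or lower, very high polarization wells dropped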;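 also: wells of about 15 µL received 100 nL stock; the first replicate is given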
# HCMV UL50-53 inh: inhibitors of HCMV UL50-UL53 nuclear egress complex interaction | HTRF UL50-UL53 interaction, normalized percent inhibition | inhibition, % (no concentration beside the values) | actives 0.15% (n = 190,000) | AID 1918969; in the data active = inhibition above about 27%, passing the limit was not always enough
# GIV-Gai FP conf: GIV-Galpha-i3 inhibition, FP confirmation. shares compounds with GIV Gai3 FP. FITC-GIV peptide binding to Galphai3, fluorescence polarization; stronger effect = lower value. fluorescence polarization, mP at 100 µM. actives 38% (n = 580). AID 1259350;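 active = inhibition score of 15 or more, meaning 100 minus mean polarization as percent of control over three replicates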
# GIV Gai AS conf: confirmation of inhibitors of GIV binding to human Galpha-i3; AlphaScreen counts at 100 µM; AID 1259351; actives 39% (n = 580); shares compounds with GIV Gai3 FP; AlphaScreen Galphai3-GIV binding, purified proteins, 90 min; stronger effect = lower value;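 active = inhibition score at or above a set limit, where the score is 100 minus the three-replicate mean percent of control signal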
# * = called active by the depositor; x = no result given. This excerpt belongs to a sample that is enriched for hits.
# Letters – A = GIV Gai3 FP; B = HCMV UL50-53 inh; C = GIV-Gai FP conf; D = GIV Gai AS conf
COC(=O)c1ccc(-c2c3c(nc4nc(N)[nH]c(=O)c24)-c2ccccc2C3=O)cc1
  A: 75*; B: -75; C: 75; D: 26602

CCOC(=O)c1c(C)nc2c(c1-c1ccc(OC)c(OC)c1)C(=O)c1ccccc1-2
  A: x; B: -22; C: x; D: x

O=C(CN(C(=O)Cn1nnc(-c2ccc(F)cc2)n1)c1ccccc1C(F)(F)F)NCc1ccco1
  A: 105; B: 11; C: x; D: x

CCCCN(C)CCCNC(=O)c1cc(-c2ccc(Br)s2)nc2ccccc12
  A: 106; B: -93; C: x; D: x

CC(C)CCNC(=O)c1cc(-c2ccc(Br)s2)nc2ccccc12
  A: 91; B: -7; C: 86; D: 34180

O=C(CN1CCn2nc(-c3ccccc3)cc2C1=O)NCCCN1CCOCC1
  A: 110; B: -4; C: x; D: x

O=C1CC(c2ccc(O)cc2)c2cnn(-c3nc4ccccc4s3)c2N1 (stereo not given)
  A: 93; B: x; C: x; D: x

Oc1ccc(NCc2cccs2)cc1
  A: 104; B: -10; C: x; D: x

Cc1ccc(CNc2ccc(O)cc2)s1
  A: 75*; B: 21; C: 50*; D: 9116*

O=C(Nc1cccc(C(F)(F)F)c1)c1ccc2ncccc2c1
  A: 98; B: -1; C: x; D: x

Cc1nnc(SCC(=O)NC(=O)c2cccn2C)n1Cc1ccccc1
  A: x; B: -9; C: x; D: x

Cc1ccc(N2C(=S)N=C(Nc3cccc(C)c3)C23CCCC3)cc1
  A: 100; B: x; C: x; D: x

CCOc1ccc(C(c2c(C)[nH]n(-c3ccccc3)c2=O)c2c(C)[nH]n(-c3ccccc3)c2=O)cc1
  A: 101; B: x; C: x; D: x

Cc1[nH]n(-c2ccccc2)c(=O)c1C(c1cc([N+](=O)[O-])ccc1O)c1c(C)[nH]n(-c2ccccc2)c1=O
  A: 76*; B: x; C: 64; D: 23681*

CCCCCCOc1ccc(C(c2c(C)[nH]n(-c3ccccc3)c2=O)c2c(C)[nH]n(-c3ccccc3)c2=O)cc1
  A: 62*; B: x; C: 67; D: 11116*

Cc1[nH]n(-c2ccccc2)c(=O)c1C(c1cc(Br)ccc1O)c1c(C)[nH]n(-c2ccccc2)c1=O
  A: 106; B: x; C: x; D: x

Cc1ccc(COc2ccc(C(c3c(C)[nH]n(-c4ccccc4)c3=O)c3c(C)[nH]n(-c4ccccc4)c3=O)cc2)cc1
  A: 115; B: x; C: x; D: x

Cc1[nH]n(-c2ccccc2)c(=O)c1C(c1ccc(C#N)cc1)c1c(C)[nH]n(-c2ccccc2)c1=O
  A: 71*; B: x; C: 66; D: 33414

CCOC(=O)c1sc2nc(C)nc(Nc3ccc(OC)cc3OC)c2c1C
  A: 103; B: -10; C: x; D: x

Cc1nc(N2CCN(C)CC2)c2c(C)c(C(=O)Nc3cccc(Cl)c3)sc2n1
  A: 94; B: x; C: 65; D: 54788

COc1ccc(Cl)cc1NC(=O)c1sc2nc(C)nc(N3CCN(C)CC3)c2c1C
  A: 97; B: x; C: x; D: x

Cc1[nH]c(=O)[nH]c(=O)c1S(=O)(=O)NCCO
  A: 103; B: -10; C: x; D: x

O=c1[nH]c(NCCO)c(I)c(=O)[nH]1
  A: 57*; B: 67*; C: 43*; D: 2885*

Cc1cc2nc(Nc3ccccc3)c3ccccc3n2n1
  A: x; B: -39; C: x; D: x

Fc1ccc(-c2csc(Cc3nc(-c4ccccc4Cl)no3)n2)cc1
  A: 100; B: x; C: x; D: x

# 4 entries from above, arranged by heavy-atom count, low to high:
# Letters – A = GIV Gai3 FP; B = HCMV UL50-53 inh; C = GIV-Gai FP conf; D = GIV Gai AS conf
Cc1ccc(N2C(=S)N=C(Nc3cccc(C)c3)C23CCCC3)cc1
  A: 100; B: x; C: x; D: x

CCOC(=O)c1sc2nc(C)nc(Nc3ccc(OC)cc3OC)c2c1C
  A: 103; B: -10; C: x; D: x

O=C(CN1CCn2nc(-c3ccccc3)cc2C1=O)NCCCN1CCOCC1
  A: 110; B: -4; C: x; D: x

Cc1[nH]n(-c2ccccc2)c(=O)c1C(c1cc(Br)ccc1O)c1c(C)[nH]n(-c2ccccc2)c1=O
  A: 106; B: x; C: x; D: x

# The results go on.
# Letters – A = GIV Gai3 FP; B = HCMV UL50-53 inh; C = GIV-Gai FP conf; D = GIV Gai AS conf
N#Cc1ccc(NC2=NS(=O)(=O)c3ccccc32)cc1
  A: 92; B: -2; C: 77; D: 35009

O=S1(=O)N=C(Nc2ccccc2)c2ccccc21
  A: x; B: -22; C: x; D: x

Cc1nc2ccc(S(=O)(=O)NCC(=O)NCc3ccccc3)cc2s1
  A: 104; B: x; C: x; D: x

CCOC1(O)C(=O)c2ccccc2C(=O)C1(O)OCC (stereo not given)
  A: 72*; B: 97*; C: 65; D: 46438

CCN(c1ccccc1)C1(O)C(=O)c2ccccc2C1=O
  A: 96; B: x; C: x; D: x

O=C(CC1(O)C(=O)c2ccccc2C1=O)c1ccccc1
  A: x; B: -42; C: x; D: x

O=C1c2ccccc2C(=O)C2(O)OCCOC12O (stereo not given)
  A: 51*; B: 106*; C: 62*; D: 34751

Cc1ccc(-c2cc(N3CCOCC3)nc(SCc3ccc(Cl)cc3)n2)cc1
  A: 106; B: -2; C: x; D: x

CN1C(=O)N(C)C(NC(=O)NC(C)(C)C)C1NC(=O)NC(C)(C)C (stereo not given)
  A: 112; B: x; C: x; D: x

CSc1nnc2c3cc(C)ccc3n(C)c2n1
  A: 107; B: -26; C: x; D: x

O=C(NCC1CCCO1)c1cccc2c1OCCCO2 (stereo not given)
  A: 98; B: 1; C: x; D: x

O=C(NCc1ccccc1)c1c(-c2ccccc2)nc2n1CCS2(=O)=O
  A: 99; B: -2; C: x; D: x

Cc1ccc(S(=O)(=O)Nc2ccc(O)c(Sc3ncn[nH]3)c2)cc1
  A: 100; B: -27; C: x; D: x

Cc1ccc(Nc2nc(Nc3ccc(C)cc3)nc(Sc3ncn[nH]3)n2)cc1
  A: x; B: -19; C: x; D: x

Cc1ccc(S(=O)(=O)/N=C2/C=C(Sc3ncn[nH]3)C(=O)c3ccccc32)cc1
  A: 5.9*; B: 32; C: 16*; D: 6564*

CC(C)c1ccc(S(=O)(=O)/N=C2/C=C(Sc3ncn[nH]3)C(=O)c3ccccc32)cc1
  A: 13*; B: x; C: 26*; D: 3681*

Cc1ccc(S(=O)(=O)/N=C2\C=C(Sc3ncn[nH]3)C(=O)c3ccccc32)cc1
  A: 83*; B: 45; C: 54*; D: 4566*

O=C1C(Sc2ccccc2)=C/C(=N/S(=O)(=O)c2cccs2)c2ccccc21
  A: 95; B: x; C: x; D: x

CCOC(=O)c1c(C=O)oc2c(C)cc(OC(=O)c3cc(C)cc(C)c3)c(Br)c12
  A: 100; B: -10; C: x; D: x

Oc1sc(-c2ccccc2)cc1C=Nc1ccccc1
  A: 84*; B: x; C: 74; D: 45653

Oc1ccccc1C=Nc1cccc(N=Cc2ccccc2O)c1
  A: 100; B: x; C: x; D: x

Cc1cc(N2CCC(C(=O)NC3CCCC3)CC2)n2nc(-c3ccc(Cl)cc3)cc2n1
  A: 107; B: x; C: x; D: x

CCOC(=O)c1ccc(-n2c(C)cc(C=C3C(=O)N(C)C(=S)N(C)C3=O)c2C)cc1
  A: 113; B: -5; C: x; D: x

CCOC(=O)c1ccc(-n2c(C)cc(C=C3C(=O)NC(=S)NC3=O)c2C)cc1
  A: 78*; B: x; C: 64; D: 10801*

O=C(O)C(Cc1ccccc1)N1C(=O)/C(=C\c2ccco2)SC1=S (stereo not given)
  A: 91; B: -23; C: x; D: x

O=C(O)CC(C(=O)O)N1C(=O)/C(=C\c2ccco2)SC1=S (stereo not given)
  A: 86; B: -20; C: 53*; D: 3647*

Cc1ccc(-c2cc(Nc3ccccc3F)nc(C)n2)cc1
  A: 102; B: 5; C: x; D: x

O=C1c2ccccc2C(=O)C1C(c1ccccc1)C1C(=O)c2ccccc2C1=O
  A: 76*; B: x; C: 54; D: 5972*

O=C(c1ccccc1)C1C(=O)c2ccccc2C1=O
  A: 97; B: -38; C: x; D: x

CCOC(=O)C1=C(C)N(CCOC)C(=O)/C1=C\c1ccc(N(C)C)cc1
  A: 64*; B: -81; C: 85; D: 19702*

CCN1C(=O)/C(=C\c2ccc(OC)cc2)C(C(=O)OC)=C1C
  A: x; B: -12; C: x; D: x

CC(=O)N1CCSc2ccc(S(=O)(=O)Nc3cccc(C)c3C)cc21
  A: 108; B: -10; C: x; D: x

CCOC(=O)c1c(N)sc(C)c1C
  A: x; B: -13; C: x; D: x

CCOC(=O)c1[nH]c2sc(C)c(C)c2c1N
  A: 83*; B: -14; C: 73; D: 8984*

COC(=O)c1[nH]c2sc3c(c2c1N)CCCC3
  A: 20*; B: -2; C: 39*; D: 8300*

COC(=O)c1c(N)sc2c1CCCC2
  A: 107; B: -8; C: x; D: x

COc1ccc(S(=O)(=O)CCC(=O)N2CCCC2c2nc(-c3ccc(C)cc3)no2)cc1 (stereo not given)
  A: 99; B: x; C: x; D: x

COC(=O)CSc1ncnc2ccccc12
  A: x; B: 5; C: x; D: x

COC(=O)CSc1ccc2c3c(cccc13)C(=O)c1ccccc1-2
  A: 68*; B: x; C: 22*; D: 45087
